For this assay, the target named is Voltage-gated inwardly rectifying potassium channel KCNH2 (Homo sapiens, UniProt Q12809). Kind of assay: Inhibition of human ERG.

Amino acid sequences for entries named in this document (tags omitted). A change or cut given only in a name is not applied to a line headed by its entry.
UniProt Q12809: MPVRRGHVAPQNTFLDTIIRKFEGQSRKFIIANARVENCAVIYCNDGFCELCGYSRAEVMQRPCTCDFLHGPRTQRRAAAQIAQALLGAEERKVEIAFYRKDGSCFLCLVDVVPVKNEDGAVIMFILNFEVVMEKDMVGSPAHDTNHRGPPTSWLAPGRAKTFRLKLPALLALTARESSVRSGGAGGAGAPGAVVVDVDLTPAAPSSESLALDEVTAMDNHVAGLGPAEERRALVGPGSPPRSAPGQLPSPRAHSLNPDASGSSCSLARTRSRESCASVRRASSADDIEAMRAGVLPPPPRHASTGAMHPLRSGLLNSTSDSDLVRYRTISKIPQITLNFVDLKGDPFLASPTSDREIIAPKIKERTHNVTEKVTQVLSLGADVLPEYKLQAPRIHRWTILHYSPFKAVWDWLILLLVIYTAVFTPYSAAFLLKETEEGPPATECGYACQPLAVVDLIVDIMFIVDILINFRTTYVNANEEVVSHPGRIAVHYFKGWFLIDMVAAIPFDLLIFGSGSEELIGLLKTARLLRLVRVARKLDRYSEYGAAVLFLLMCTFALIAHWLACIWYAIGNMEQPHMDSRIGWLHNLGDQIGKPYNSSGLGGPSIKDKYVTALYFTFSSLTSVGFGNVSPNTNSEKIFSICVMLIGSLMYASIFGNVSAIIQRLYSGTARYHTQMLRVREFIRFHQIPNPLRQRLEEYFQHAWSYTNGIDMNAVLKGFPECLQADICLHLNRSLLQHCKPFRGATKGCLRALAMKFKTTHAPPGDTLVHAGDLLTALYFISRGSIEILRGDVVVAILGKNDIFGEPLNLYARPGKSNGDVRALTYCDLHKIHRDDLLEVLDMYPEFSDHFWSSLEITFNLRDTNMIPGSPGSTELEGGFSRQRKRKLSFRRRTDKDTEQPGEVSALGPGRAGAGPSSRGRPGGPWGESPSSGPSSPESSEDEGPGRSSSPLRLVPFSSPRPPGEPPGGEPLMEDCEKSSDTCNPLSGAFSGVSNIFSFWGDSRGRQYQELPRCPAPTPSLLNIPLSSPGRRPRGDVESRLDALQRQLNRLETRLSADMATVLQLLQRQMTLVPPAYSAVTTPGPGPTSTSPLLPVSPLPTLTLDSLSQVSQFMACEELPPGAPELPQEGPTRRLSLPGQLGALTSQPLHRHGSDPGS

Results on 1 compound are retold here after ChEMBL document CHEMBL1287767, “Experimental solubility profiling of marketed CNS drugs, exploring solubility limit of CNS discovery candidate” (Bioorg Med Chem Lett, 2010).

Bounds are passed on as bounds.

Turning to `O=C1Cc2cc(CCN3CCN(c4nsc5ccccc45)CC3)c(Cl)cc2N1` [ZIPRASIDONE], the IC50 (as a rule, the point on the concentration scale where inhibition reaches its midpoint) was under 1000 nM.
